The values below come from ChEMBL document CHEMBL1147615, “Design and synthesis of novel small molecule N/OFQ receptor antagonists” (2004).

The assay has as its target Nociceptin receptor (Homo sapiens, UniProt P41146). Put plainly: Binding affinity towards Nociceptin/orphanin FQ (N/OFQ) receptor from recombinant HEK293 cell membranes was determined using binding assay.

Consider `CCn1c(=O)n([C@@H]2CCN(CC3CCCCCCC3)C[C@H]2CO)c2ccccc21`, for which the inhibition constant (Ki) – broadly, the equilibrium dissociation constant of an inhibitor or competing ligand from its target – was 2.3 nM.
